{"sequences": {"note": "By UniProt entry, the sequences of proteins in these tests, tags left out. Residues count along the entry.", "UniProt P00811, 20-377": "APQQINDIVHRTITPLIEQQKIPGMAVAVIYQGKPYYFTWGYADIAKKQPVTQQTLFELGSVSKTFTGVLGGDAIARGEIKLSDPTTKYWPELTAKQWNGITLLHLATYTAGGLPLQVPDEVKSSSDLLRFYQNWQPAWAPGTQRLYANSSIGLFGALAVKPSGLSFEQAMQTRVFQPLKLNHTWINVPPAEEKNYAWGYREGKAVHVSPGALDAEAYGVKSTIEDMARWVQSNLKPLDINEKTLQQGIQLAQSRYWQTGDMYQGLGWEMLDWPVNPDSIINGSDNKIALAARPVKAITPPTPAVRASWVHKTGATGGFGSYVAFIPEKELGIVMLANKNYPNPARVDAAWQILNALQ"}, "source": "paper PMC11257449", "about": "(bioRxiv, 2024)", "molecular_target": "AmpC β-lactamase (Escherichia coli, UniProt P00811)", "type": "biochemical", "conditions": "read-out: affinity (Ki) for AmpC", "data": [{"compound": "COC(=O)c1ccc(CNC(=O)c2c(C)o[nH]c2=O)cc1OC", "note": "[Z6615146331]", "values": [{"measurement": "Ki", "result": 36, "unit": "µM"}]}]}
